Only a part is listed here, and it is no random draw. Some tests of the compounds listed are not included; inactive here does not mean inactive elsewhere. The source made the active and inactive calls. Rule as the data show it: active = normalized absorbance mostly below about 85% (no sharp cut-off); inactive = mostly above about 86%.
System: Vaccinia virus DNA polymerase (E9) processive complex
Test: vaccinia E9 polymerase processive synthesis inhibitors, primary screen, biochemical, absorbance (AID 493162)
Conditions: in vitro processive DNA synthesis, absorbance read-out; active compounds read low; concentration not given here

Compound | normalized absorbance
O=C(OC1CN2CCC1CC2)C(CO)(c1ccccc1)c1ccccc1 (stereo unspecified) | inactive: 94.9%
